Assay results: US10351576B2, “Fused tricyclic pyrazole derivatives useful for farnesoid X receptors” (NOVARTIS AG, priority 2015, dated 2019)

Sequences of proteins named here, by UniProt entry; tags and fusion partners are left off. Residues count along the entry.
UniProt Q96RI1, 193-472 isoform 2 limits assumed: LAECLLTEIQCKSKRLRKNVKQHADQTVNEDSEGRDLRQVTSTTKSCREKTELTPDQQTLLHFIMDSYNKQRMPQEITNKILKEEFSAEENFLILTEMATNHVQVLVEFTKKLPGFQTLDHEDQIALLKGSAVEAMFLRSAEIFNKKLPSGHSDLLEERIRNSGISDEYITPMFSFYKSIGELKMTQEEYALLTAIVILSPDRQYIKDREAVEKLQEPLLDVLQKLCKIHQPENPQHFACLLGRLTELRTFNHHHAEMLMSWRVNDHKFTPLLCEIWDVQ

Molecular target: human Farnesoid X Receptor (FXR) ligand binding domain (GST-FXR LBD) (Homo sapiens, UniProt Q96RI1)
Experiment: Human GST-FXR LBD co-activator interaction assay (FXR HTRF assay)
Type: biochemical
Conditions: read-out: FXR coactivator interaction assay (HTRF), ligand-dependent interaction of GST-FXR LBD with biotin-labeled SRC-1 peptide, response relative to GW4064

Cn1nc(C(=O)N(CC(=O)Nc2cccc(S(N)(=O)=O)c2)Cc2ccccc2F)c2c1-c1cc(Cl)ccc1OC2
pEC50: 7.14

pEC50: −log10 of the molar value.
